Results on 6 molecules are retold here after US20250382344A1, “Soluble GLP1/GIP/NPY2 Receptor Triple Agonists” (Boehringer Ingelheim International GmH, priority 2024, published 2025).

Protein sequences, listed by entry. Tags and fused reporters are not part of them. Lines headed by an entry give the natural chain unless they say otherwise; changes in a name come on top.
UniProt P49146, whole entry: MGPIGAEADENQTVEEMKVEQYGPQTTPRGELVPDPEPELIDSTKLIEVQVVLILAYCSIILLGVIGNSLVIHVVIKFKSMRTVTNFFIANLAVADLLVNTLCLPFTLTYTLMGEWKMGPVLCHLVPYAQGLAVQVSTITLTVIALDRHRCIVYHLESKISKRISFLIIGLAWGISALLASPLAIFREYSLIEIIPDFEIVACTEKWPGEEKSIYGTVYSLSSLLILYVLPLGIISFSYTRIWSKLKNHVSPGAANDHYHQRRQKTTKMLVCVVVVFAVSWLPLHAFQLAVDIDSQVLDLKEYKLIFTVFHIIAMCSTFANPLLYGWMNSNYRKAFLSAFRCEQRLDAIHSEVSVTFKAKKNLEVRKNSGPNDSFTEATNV
UniProt P43220: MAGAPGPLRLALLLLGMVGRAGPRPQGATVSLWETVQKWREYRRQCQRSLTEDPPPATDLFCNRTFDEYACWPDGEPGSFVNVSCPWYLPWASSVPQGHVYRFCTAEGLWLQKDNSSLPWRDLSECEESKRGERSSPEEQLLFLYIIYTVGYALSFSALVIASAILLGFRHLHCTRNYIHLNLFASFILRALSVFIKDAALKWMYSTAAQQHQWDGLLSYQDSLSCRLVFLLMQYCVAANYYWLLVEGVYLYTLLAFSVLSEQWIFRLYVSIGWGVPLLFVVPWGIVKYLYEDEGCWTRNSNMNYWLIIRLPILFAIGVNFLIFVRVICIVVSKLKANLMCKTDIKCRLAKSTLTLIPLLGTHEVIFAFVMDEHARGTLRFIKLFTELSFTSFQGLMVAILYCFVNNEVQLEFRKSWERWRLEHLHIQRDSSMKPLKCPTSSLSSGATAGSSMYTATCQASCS

Assay in all cases: cell-based or functional assay
The target in experiment [1] is human neuropeptide Y2 receptor (human, UniProt P49146 1-381).
Experiment [2] addresses human GLP-1 receptor (human, UniProt P43220 24-463).
Experiment [3] has the same target. The source holds these as a separate data set.
Experiment [4] addresses T1, human GIP receptor (human, UniProt P48546 22-466).
T1 sequence (looked up): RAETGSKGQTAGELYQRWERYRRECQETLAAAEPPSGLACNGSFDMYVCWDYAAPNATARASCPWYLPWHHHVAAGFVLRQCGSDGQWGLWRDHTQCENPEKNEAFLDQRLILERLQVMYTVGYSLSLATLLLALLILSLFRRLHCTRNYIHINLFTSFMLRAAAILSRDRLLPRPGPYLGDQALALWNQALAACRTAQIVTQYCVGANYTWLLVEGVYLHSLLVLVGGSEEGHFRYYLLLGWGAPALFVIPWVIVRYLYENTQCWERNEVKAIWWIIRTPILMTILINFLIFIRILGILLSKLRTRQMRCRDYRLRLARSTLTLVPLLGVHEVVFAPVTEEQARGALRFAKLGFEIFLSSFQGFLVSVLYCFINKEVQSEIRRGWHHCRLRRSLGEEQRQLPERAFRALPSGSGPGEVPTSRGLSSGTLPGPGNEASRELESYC

B1: Compound 56 (peptide)
peptide: YXEGTFTSDYSIXLEKQAQXEFVRHLINKXTRQRY
modifications: Aib at 2, 13, 20, 30; Lys29 epsilon-amino acylated with C18DA-gGlu-gGlu-gGlu-gGlu-gGlu-gGlu; C-terminal amide
For the molecule B1, the “EC50, CreLuc reporter, 0.5% hP” value in experiment [1] came to 122 nM.

B2: Compound 141 (peptide)
peptide: YXEGTFTSDYSIXLEKQAQXAFVRHLINKXTRQRY
modifications: Aib at 2, 13, 20, 30; Lys29 epsilon-amino: C18DA-gGlu-gGlu-gGlu-gGlu-gGlu-eLys; C-terminal amide
For B2, the “EC50, CreLuc reporter, 100% hP” value in experiment [2] worked out at 4.1 nM.

B3: Compound 9 (peptide)
peptide: YXEGTFTSDYSIXLEKQAQXAFVRHLINKXTRQRY
modifications: Aib at 2, 13, 20, 30; Lys29 epsilon-amino acylated with C18DA-gGlu-gGlu-gGlu-gGlu-gGlu-gGlu-AHX; C-terminal amide
As to B3, in experiment [3], the “EC50, CreLuc reporter, 100% hP” value worked out at 2.4 nM.

B4: Compound 1 (peptide)
peptide: YXEGTFTSDLSIXLEKQAQXAFVRHLINKXTRQRY
modifications: Aib at 2, 13, 20, 30; Lys29 epsilon-amino acylated with C20DA-gGlu-gGlu-gGlu-gGlu-gGlu-AHX-AHX; C-terminal amide
B4: in experiment [3], the “EC50, CreLuc reporter, 0.5% hP” value came to 2.2 nM.

B5: Compound 53 (peptide)
peptide: YXEGTFTSDYSIXLEKQAQXAFIRHLINKXTRQRY
modifications: Aib at 2, 20, 30; aMeL at 13; Lys29 epsilon-amino acylated with C20DA-gGlu-gGlu-gGlu-gGlu-gGlu-gGlu-eLys; C-terminal amide
Take B5: in experiment [3], the “EC50, CreLuc reporter, 100% hP” value amounted to 1.1 nM.

B6: Compound 149 (peptide)
peptide: YXEGTFTSDYSIXLEKQAQXEFVRHLINKXTRQRY
modifications: Aib at 2, 13, 20, 30; Lys29 epsilon-amino: C20DA-gGlu-gGlu-gGlu-gGlu-gGlu-gGlu-eLys; C-terminal amide
Turning to B6, the “EC50, CreLuc reporter, 100% hP” value in experiment [4] worked out at 7.6 nM.
